Results: PMC5983544, “Muscarinic M5 receptors modulate ethanol seeking in rats” (Neuropsychopharmacology, 2018)

By UniProt entry, the sequences of proteins in these tests, tags left out.
UniProt P08911, whole entry: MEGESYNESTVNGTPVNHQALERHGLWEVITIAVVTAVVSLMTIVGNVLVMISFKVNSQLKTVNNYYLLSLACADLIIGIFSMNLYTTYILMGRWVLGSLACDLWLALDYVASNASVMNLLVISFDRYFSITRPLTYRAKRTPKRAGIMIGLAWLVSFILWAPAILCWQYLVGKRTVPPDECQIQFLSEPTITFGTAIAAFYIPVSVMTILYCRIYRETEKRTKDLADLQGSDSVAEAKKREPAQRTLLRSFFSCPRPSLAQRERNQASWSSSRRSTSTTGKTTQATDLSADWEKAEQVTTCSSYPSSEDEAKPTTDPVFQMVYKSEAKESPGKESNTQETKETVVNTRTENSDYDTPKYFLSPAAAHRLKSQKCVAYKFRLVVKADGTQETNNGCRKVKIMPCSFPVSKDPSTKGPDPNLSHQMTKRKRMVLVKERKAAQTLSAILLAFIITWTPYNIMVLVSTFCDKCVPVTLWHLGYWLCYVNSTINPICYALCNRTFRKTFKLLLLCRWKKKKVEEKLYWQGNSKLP

Key:
rat M5 mAChR [1] = target: T1, rat M5 mAChR (Rattus norvegicus, UniProt P08911); experiment: [3H]NMS equilibrium binding in whole CHO-rM5 cells (interaction with ACh)
rat M5 mAChR [2] = target: T1, rat M5 mAChR; experiment: ACh-stimulated IP accumulation (IP-One) in CHO-rM5 cells; assay type: cell-based; details: [3H]NMS-binding and functional studies

cooperativity with [3H]NMS (rat M5 mAChR [1]): neutral-to-weak negative cooperativity
cooperativity with ACh binding, Log α (rat M5 mAChR [1]; whole-cell [3H]NMS binding): −1.41 ± 0.15
selectivity for rM5 mAChR over other mAChRs (rat M5 mAChR [2]): high selectivity
SMILES: O=C(c1ccc(F)c(F)c1)N1CCN2C(=O)c3ccccc3[C@@]12c1ccc(Cl)cc1 [ML375, (S)-9b-(4-chlorophenyl)-1-(3,4-difluorobenzoyl)-2,3-dihydro-1H-imidazo[2,1-a]isoi ndol-5(9bH)-one]
